Molecular target: m7 (FITC label, end not stated)
Assay: FP

Binder | Kd [nM]
dT14-3-3_biPKB, unphosphorylated (other) MAVAPTAREENVYMAKLAEQAERYEEMVEFMEKVSNSLGSEELTVEERNLLSVAYKNVIGARRASWRIISSIEQKEESRGNEEHVNSIREYRSKIENELSKICDGILKLLDAKLIPSAASGDSKVFYLKMKGDYHRYLAEFKTGAERKEAAESTLTAYKAAQDIATTELAPTHPIRLGLALNFSVFYYEILNSPDRACNLAKQAFDEAIAELDTLGEESYKDSTLIMQLLRDNLTLWTSDMQGGSGGSGGSGGSGGSGGSGGSGGSGGSGGSMAVAPTAREENVYMAKLAEQAERYEEMVEFMEKVSNSLGSEELTVEERNLLSVAYKNVIGARRASWRIISSIEQKEESRGNEEHVNSIREYRSKIENELSKICDGILKLLDAKLIPSAASGDSKVFYLKMKGDYHRYLAEFKTGAERKEAAESTLTAYKAAQDIATTELAPTHPIRLGLALNFSVFYYEILNSPDRACNLAKQAFDEAIAELDTLGEESYKDSTLIMQLLRDNLTLWTSDMQGTSGGSGGSGGSGGSDDVTPCSMSGGSGGSENLYFQSGGSGGSGGSGGSGGSGGSGGSGGSGALSGGSTGTRARTSSFAEPGGSGGSGGSGSRARTSSFAEP | 22
dimeric Tobacco 14-3-3 scaffold (other) MAVAPTAREENVYMAKLAEQAERYEEMVEFMEKVSNSLGSEELTVEERNLLSVAYKNVIGARRASWRIISSIEQKEESRGNEEHVNSIREYRSKIENELSKICDGILKLLDAKLIPSAASGDSKVFYLKMKGDYHRYLAEFKTGAERKEAAESTLTAYKAAQDIATTELAPTHPIRLGLALNFSVFYYEILNSPDRACNLAKQAFDEAIAELDTLGEESYKDSTLIMQLLRDNLTLWTSDMQGGSGGSGGSGGSGGSGGSGGSGGSGGSGGSMAVAPTAREENVYMAKLAEQAERYEEMVEFMEKVSNSLGSEELTVEERNLLSVAYKNVIGARRASWRIISSIEQKEESRGNEEHVNSIREYRSKIENELSKICDGILKLLDAKLIPSAASGDSKVFYLKMKGDYHRYLAEFKTGAERKEAAESTLTAYKAAQDIATTELAPTHPIRLGLALNFSVFYYEILNSPDRACNLAKQAFDEAIAELDTLGEESYKDSTLIMQLLRDNLTLWTSDMQ | 29.4
dT14-3-3_PKA/CHK1, unphosphorylated (other) MAVAPTAREENVYMAKLAEQAERYEEMVEFMEKVSNSLGSEELTVEERNLLSVAYKNVIGARRASWRIISSIEQKEESRGNEEHVNSIREYRSKIENELSKICDGILKLLDAKLIPSAASGDSKVFYLKMKGDYHRYLAEFKTGAERKEAAESTLTAYKAAQDIATTELAPTHPIRLGLALNFSVFYYEILNSPDRACNLAKQAFDEAIAELDTLGEESYKDSTLIMQLLRDNLTLWTSDMQGGSGGSGGSGGSGGSGGSGGSGGSGGSGGSMAVAPTAREENVYMAKLAEQAERYEEMVEFMEKVSNSLGSEELTVEERNLLSVAYKNVIGARRASWRIISSIEQKEESRGNEEHVNSIREYRSKIENELSKICDGILKLLDAKLIPSAASGDSKVFYLKMKGDYHRYLAEFKTGAERKEAAESTLTAYKAAQDIATTELAPTHPIRLGLALNFSVFYYEILNSPDRACNLAKQAFDEAIAELDTLGEESYKDSTLIMQLLRDNLTLWTSDMQGTSGGSGGSGGSGGSDDVTPCSMSGGSGGSENLYFQSGGSGGSGGSGGSGGSGGSGGSGGSGALSGGSTGTRQRSTSTPNVGGSGGSGGSGSLYRSPSMPEN | 23.3
dT14-3-3_PKB/CHK1, unphosphorylated (other) MAVAPTAREENVYMAKLAEQAERYEEMVEFMEKVSNSLGSEELTVEERNLLSVAYKNVIGARRASWRIISSIEQKEESRGNEEHVNSIREYRSKIENELSKICDGILKLLDAKLIPSAASGDSKVFYLKMKGDYHRYLAEFKTGAERKEAAESTLTAYKAAQDIATTELAPTHPIRLGLALNFSVFYYEILNSPDRACNLAKQAFDEAIAELDTLGEESYKDSTLIMQLLRDNLTLWTSDMQGGSGGSGGSGGSGGSGGSGGSGGSGGSGGSMAVAPTAREENVYMAKLAEQAERYEEMVEFMEKVSNSLGSEELTVEERNLLSVAYKNVIGARRASWRIISSIEQKEESRGNEEHVNSIREYRSKIENELSKICDGILKLLDAKLIPSAASGDSKVFYLKMKGDYHRYLAEFKTGAERKEAAESTLTAYKAAQDIATTELAPTHPIRLGLALNFSVFYYEILNSPDRACNLAKQAFDEAIAELDTLGEESYKDSTLIMQLLRDNLTLWTSDMQGTSGGSGGSGGSGGSDDVTPCSMSGGSGGSENLYFQSGGSGGSGGSGGSGGSGGSGGSGGSGALSGGSTGTRARTSSFAEPGGSGGSGGSGSLYRSPSMPEN | 26.3
dT14-3-3_PKA/PKB, unphosphorylated (other) MAVAPTAREENVYMAKLAEQAERYEEMVEFMEKVSNSLGSEELTVEERNLLSVAYKNVIGARRASWRIISSIEQKEESRGNEEHVNSIREYRSKIENELSKICDGILKLLDAKLIPSAASGDSKVFYLKMKGDYHRYLAEFKTGAERKEAAESTLTAYKAAQDIATTELAPTHPIRLGLALNFSVFYYEILNSPDRACNLAKQAFDEAIAELDTLGEESYKDSTLIMQLLRDNLTLWTSDMQGGSGGSGGSGGSGGSGGSGGSGGSGGSGGSMAVAPTAREENVYMAKLAEQAERYEEMVEFMEKVSNSLGSEELTVEERNLLSVAYKNVIGARRASWRIISSIEQKEESRGNEEHVNSIREYRSKIENELSKICDGILKLLDAKLIPSAASGDSKVFYLKMKGDYHRYLAEFKTGAERKEAAESTLTAYKAAQDIATTELAPTHPIRLGLALNFSVFYYEILNSPDRACNLAKQAFDEAIAELDTLGEESYKDSTLIMQLLRDNLTLWTSDMQGTSGGSGGSGGSGGSDDVTPCSMSGGSGGSENLYFQSGGSGGSGGSGGSGGSGGSGGSGGSGALSGGSTGTRQRSTSTPNVGGSGGSGGSGSRARTSSFAEP | 29.1
dT14-3-3_biCHK1, unphosphorylated (other) MAVAPTAREENVYMAKLAEQAERYEEMVEFMEKVSNSLGSEELTVEERNLLSVAYKNVIGARRASWRIISSIEQKEESRGNEEHVNSIREYRSKIENELSKICDGILKLLDAKLIPSAASGDSKVFYLKMKGDYHRYLAEFKTGAERKEAAESTLTAYKAAQDIATTELAPTHPIRLGLALNFSVFYYEILNSPDRACNLAKQAFDEAIAELDTLGEESYKDSTLIMQLLRDNLTLWTSDMQGGSGGSGGSGGSGGSGGSGGSGGSGGSGGSMAVAPTAREENVYMAKLAEQAERYEEMVEFMEKVSNSLGSEELTVEERNLLSVAYKNVIGARRASWRIISSIEQKEESRGNEEHVNSIREYRSKIENELSKICDGILKLLDAKLIPSAASGDSKVFYLKMKGDYHRYLAEFKTGAERKEAAESTLTAYKAAQDIATTELAPTHPIRLGLALNFSVFYYEILNSPDRACNLAKQAFDEAIAELDTLGEESYKDSTLIMQLLRDNLTLWTSDMQGTSGGSGGSGGSGGSDDVTPCSMSGGSGGSENLYFQSGGSGGSGGSGGSGGSGGSGGSGGSGALSGGSTGTLYRSPSMPENGGSGGSGGSGSLYRSPSMPEN | 18.9
dT14-3-3_biPKA, unphosphorylated (other) MAVAPTAREENVYMAKLAEQAERYEEMVEFMEKVSNSLGSEELTVEERNLLSVAYKNVIGARRASWRIISSIEQKEESRGNEEHVNSIREYRSKIENELSKICDGILKLLDAKLIPSAASGDSKVFYLKMKGDYHRYLAEFKTGAERKEAAESTLTAYKAAQDIATTELAPTHPIRLGLALNFSVFYYEILNSPDRACNLAKQAFDEAIAELDTLGEESYKDSTLIMQLLRDNLTLWTSDMQGGSGGSGGSGGSGGSGGSGGSGGSGGSGGSMAVAPTAREENVYMAKLAEQAERYEEMVEFMEKVSNSLGSEELTVEERNLLSVAYKNVIGARRASWRIISSIEQKEESRGNEEHVNSIREYRSKIENELSKICDGILKLLDAKLIPSAASGDSKVFYLKMKGDYHRYLAEFKTGAERKEAAESTLTAYKAAQDIATTELAPTHPIRLGLALNFSVFYYEILNSPDRACNLAKQAFDEAIAELDTLGEESYKDSTLIMQLLRDNLTLWTSDMQGTSGGSGGSGGSGGSDDVTPCSMSGGSGGSENLYFQSGGSGGSGGSGGSGGSGGSGGSGGSGALSGGSTGTQHRYSTPHAFTFNTSSPSSEGSLSQRQRSTSTPNVH | 21.9
